Assay results published in US4571399A, “7-(1-Methyl-5-p-methylbenzoylpyrrole-2-acetamidoethyl)-theophylline with anti-platelet aggregant and broncholytic activity” (Medosan Industrie Biochimiche Riunite S.p.A., priority 1983, dated 1986).
“Also recorded” adds a separate entry of the source. Where two headings read alike, the source gives them in different places.

Legend:
[1] = system: platelet aggregation induced with ADP (platelet rich plasma); assay: In vitro anti-platelet aggregant activity (Born's method, ADP-induced aggregation); type: cell-based, rat; settings: for inhibition at 1 µg/mL / inhibition at 5 µg/mL / inhibition at 10 µg/mL: Rattus norvegicus, Platelet, 0.05 h, 3 min incubation; for inhibition at 1 µg/mL: dose 1 γ/ml; for inhibition at 5 µg/mL: dose 5 γ/ml; for inhibition at 10 µg/mL: dose 10 γ/ml
mouse = settings: i.p., literature value; cited from earlier work
[2] = system: guinea pig tracheal chains (histamine as bronchoconstrictor); assay: Broncholytic activity in vitro on tracheal chains (Akasu's method), antagonism of histamine; type: cell-based; settings: summary in words
[3] = Antinflammatory and analgesic effects (no method described); settings: summary in words; no data shown
Solubility = type: physicochemical; settings: in dichloromethane, N,N'-dimethylformamide
in vivo = settings: mouse
[4] = read-out: Inhibition % of platelet aggregation, ADP 7,08 μmol/l
[5] = ADP 7,08 μmol/l, read-out: Inhibition % of platelet aggregation

Row | Compound | inhibition at 1 µg/mL ([1]; read-out: Inhibition % of platelet aggregation, ADP 2 μmol/l) | inhibition at 1 µg/mL ([1]; read-out: Inhibition % of platelet aggregation, ADP 5 μmol/l) | inhibition at 1 µg/mL [1, 4] | inhibition at 5 µg/mL [1, 4] | inhibition at 10 µg/mL [1, 4] | DL50 (LD50) (mouse) | broncholytic activity [2] | inhibition at 1 µg/mL ([1]; ADP 2 μmol/l, read-out: Inhibition % of platelet aggregation) | inhibition at 1 µg/mL ([1]; ADP 5 μmol/l, read-out: Inhibition % of platelet aggregation) | inhibition at 1 µg/mL [1, 5] | inhibition at 5 µg/mL [1, 5] | inhibition at 10 µg/mL [1, 5] | anti-platelet aggregant activity ([1]; summary in words) | analgesic effect [3] | antinflammatory effect [3] | Solubility (Solubility) | LD50 (in vivo; ip) | LD50 (in vivo; po)
1 | CC(=O)Oc1ccccc1C(=O)O [Aspirin, reference compound] | 29% | 19% | 15% | 60% | 100% | 495 mg/kg | – | – | – | – | – | – | – | – | – | – | – | –
2 | Cc1ccc(C(=O)c2ccc(CC(=O)NCCn3cnc4c3c(=O)n(C)c(=O)n4C)n2C)cc1 [compound (1), 7-(1-methyl-5-p-methylbenzoylpyrrole-2-acetamidoethyl)theophylline] | – | – | – | – | – | – | good broncholytic action; also recorded: good broncholytic activity comparable to that of theophylline | 30% | 21% | 12% | 59% | 90% | pronounced therapeutically useful anti-platelet aggregant activity | low antinflammatory and analgesic effects | low antinflammatory and analgesic effects | soluble in dichloromethane, N,N'-dimethylformamide | 970 mg/kg | 1400 mg/kg
